# The list shows a part of the results, in another mix than the full data. Activity calls are given as the source filed them.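 Rule for the calls: active = viability at 10 µM of 29.74% or lower, 3 SD below the compound median; inactive = the rest.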
# Experiment: viability of HCT116 lacking mutant beta-catenin – cell-based, DP diverse set, validation, pilot screen (AID 1004)
# Settings: HCT116 (mutant beta-catenin deleted) viability, CellTiter-Glo, 60 h; at 10 µM; active compounds read low
smiles,measurement,value
CN(C(=O)Cc1ccc(Cl)c(Cl)c1)[C@H]1CCCC[C@@H]1N1CCCC1,viability,inactive: 90%

# Source: PubChem BioAssay AID1004 (SRMLSC, 2008)
